Entries after “also recorded” stand apart in the source; their conditions may differ. Where two headings read alike, the source gives them in different places.
Columns and labels:
[1] = test system: human platelets (U46619, thromboxane A2 agonist-induced aggregation); experiment: U46619-induced human platelet aggregation (turbidometric, + ASA); format: cell-based
Method: (§1) The antiaggregatory action of the compounds of the present invention was determined using the following procedure: ADP and AA were obtained from Sigma Chemical Co., (St. Louis, MO). [^14 C]-Serotonin (57 mCi/mmol) and [^3 H]-AA (210 Ci/mmol) were supplied by Amersham (Arlington Heights, IL). U46619 (15S-hydroxy-11α,9α-epoxymethano-prosta-5z,13E-dienoic acid) was purchased from Upjohn Diagnostics (Kalamazoo, MI). Blood was collected from normal human volunteers who reported to be free of medication for at least 10 days prior to blood collection. Washed platelets were prepared and suspended in a modified Tyrode's solution, pH 7.4 as described in Navran, S. S., et al., Thromb. […] The platelet count was adjusted to 3×10^8 /ml for aggregation, secretion and biochemical studies.
(§2) Inhibitors were added one minute prior to induction of platelet activation. Secretion of the contests of platelet dense granules was measured by monitoring the release of radioactivity from platelets prelabeled with [^14 C]-serotonin. […] Released [^3 H]-AA was quantified from supernatants of stimulated platelet samples in a manner identical to the determination of serotonin secretion.

[2] = test system: human platelets (AA-induced MDA formation); experiment: AA-induced malondialdehyde (MDA) formation; format: cell-based; settings: Platelet, read-out: IC50, AA-induced MDA formation
Method: (§3) The antiaggregatory action of the compounds of the present invention was determined using the following procedure: ADP and AA were obtained from Sigma Chemical Co., (St. Louis, MO). [^14 C]-Serotonin (57 mCi/mmol) and [^3 H]-AA (210 Ci/mmol) were supplied by Amersham (Arlington Heights, IL). U46619 (15S-hydroxy-11α,9α-epoxymethano-prosta-5z,13E-dienoic acid) was purchased from Upjohn Diagnostics (Kalamazoo, MI). Blood was collected from normal human volunteers who reported to be free of medication for at least 10 days prior to blood collection. Washed platelets were prepared and suspended in a modified Tyrode's solution, pH 7.4 as described in Navran, S. S., et al., Thromb. Res., 33: 449-510 (1984). […]
(§4) Platelet aggregation studies were performed according to the turbidometric method of Born, as described in Nature, 194: 927-929 (1962), in a Payton Model 600 dual channel aggregometer interfaced to an Apple microcomputer for acquistion, quantitation, presentation, and management of platelet aggregation data, as described in Huzoor-Akbar, et al., 32 Thromb. […] Secretion of the contests of platelet dense granules was measured by monitoring the release of radioactivity from platelets prelabeled with [^14 C]-serotonin. Malondialdehyde formation induced by AA was determined as described in Huzoor-Akar et al., Biochem Pharmacol., 30: 2013-2020 (1981). […]

[3] = test system: human platelets (ADP-induced aggregation); experiment: ADP-induced human platelet aggregation (turbidometric, secondary aggregation); format: cell-based
Method: as §1
Inhibitors were added one minute prior to induction of platelet activation. Secretion of the contests of platelet dense granules was measured by monitoring the release of radioactivity from platelets prelabeled with [^14 C]-serotonin. […] To study the release of AA from platelet phospholipids, washed platelets were incubated with [^3 H]-AA (3.6 mCi/10^9 platelets) for two hours at room temperature prior to the final centrifugation and resuspension of the washing procedure. Released [^3 H]-AA was quantified from supernatants of stimulated platelet samples in a manner identical to the determination of serotonin secretion.

[4] = test system: human platelets (thrombin-induced [3H]-AA release); experiment: Thrombin-induced [3H]-arachidonic acid release; format: cell-based
Method: as §3, §4

[5] = test system: human platelets (collagen-induced aggregation); settings: literature, cited from earlier work
[6] = test system: human platelets (collagen-induced serotonin secretion); settings: Witiak et al., J. Med Chem. 25: 90 (1982); cited from earlier work
[7] = test system: human platelets (ADP-induced aggregation); settings: literature; cited from earlier work
[8] = test system: human platelets (arachidonic acid-induced aggregation); experiment: Arachidonic acid-induced human platelet aggregation (turbidometric); format: cell-based; settings: inhibitor 1 min before AA (0.2-1 mM), mean ± S.E.M., n = 3-9 donors
Method: as §1, §2

[9] = test system: human platelets (arachidonic acid-induced serotonin secretion); experiment: Arachidonic acid-induced [14C]-serotonin secretion; format: cell-based
Method: as §1, §2

CC(C)(Oc1ccc(Cl)cc1)C(=O)O [Clofibric acid 1, clofibric acid]
inhibition of U46619-induced aggregation/responses (in words) [1]: Unlike clofibric acid
IC50 ([1]; Homo sapiens, Platelet, inhibitor 1 min before U46619 (0.3 uM), aspirin 1 mM added, mean ± S.E.M., n = 3-9 donors): 4 mM
IC50 [2]: > 2.96 mM
inhibition of (secondary wave of) ADP-induced aggregation (in words) [3]: concentration-dependent inhibition
rank order of potency, aggregation and serotonin secretory responses to ADP and AA ([3]; ADP and AA, aggregation and serotonin secretion together): benzopyranone analogue>2,3-dihydrobenzofuran analog>clofibric acid
IC50 ([3]; Homo sapiens, Platelet, inhibitor 1 min before ADP (1-5 uM), secondary aggregation only, mean ± S.E.M., n = 3-9 donors): 0.98 ± 0.245 mM
rank order of inhibitory potency, thrombin-induced AA release [4]: IX>>X=1; also recorded: IX>1=X
IC50 ([4]; Homo sapiens, Platelet, read-out: IC50, thrombin-induced [3H]-AA release): 3.31 mM
inhibition of collagen-induced human platelet aggregation/activation (in words) [5]: inhibits collagen- and adenosin diphosphate (ADP)-induced human platelet activation
inhibition of collagen-induced human platelet aggregation/activation (in words) ([5]; listed as 1): inhibit collagen-inducedhuman platelet aggregation
inhibition of collagen-induced secretion of [14C]-serotonin (in words) [6]: in a concentration-dependent manner at equivalent doses
inhibition of ADP-induced human platelet activation (in words) [7]: inhibits collagen- and adenosin diphosphate (ADP)-induced human platelet activation
IC50 [8]: 3.07 mM
rank order of inhibitory potency, AA-induced serotonin secretion ([9]; AA-induced serotonin secretion): IX>X>1
IC50 ([9]; Homo sapiens, Platelet, inhibitor 1 min before AA (0.2-1 mM), mean ± S.E.M., n = 3-9 donors): 3.43 mM

From patent publication US4845121A, “Aci-reductone compounds belonging to the 6,7-disubstituted-3,4-dihydro benzopyan-2H-one class having antiaggregatory properties” (The Ohio State University Research Foundation, priority 1986, dated 1989)
